Consider 1 compound from patent US12582616B2, “Molecular targets for modulation of dissociative and associative states” (The Board of Trustees of the Leland Stanford Junior …, priority 2020, dated 2026).

For assay [1], the system named is layer 5 RSP neurons. Nature of the assay: Ketamine-TRAP (TRAP2) brain-wide activity-mapping. It counts as in vivo, mouse. As to conditions: 50 mg/kg ketamine injections. The protocol: Dissolved 4-OHT (20 mg/mL in ethanol) was mixed with corn oil at a concentration of 10 mg/mL, and ethanol evaporated by vacuum centrifugation (60 minutes). Mice were each placed alone in a novel cage for 30 minutes, to remain for the experiment. Two mice were injected with 50 mg/kg ketamine intraperitoneally, and two mice were injected with an equivalent volume of saline. After 1 hr, all mice were injected with 50 mg/kg tamoxifen, as well as an additional dose of 50 mg/kg ketamine/saline. After 1 hr, a final dose of ketamine/saline was administered. This protocol was designed to ensure that the ketamine-induced oscillation (and associated cFos expression) was occurring throughout the majority of the ˜4 hr post-tamoxifen-injection time window during which TRAP2 labels cells. After 10 days (to allow time for expression of tdTomato), mice were perfused with ice cold PBS and 4% PFA. Coronal sections (50 μm) were taken using a vibratome and imaged on an epifluorescence microscope.

Assay [2] relates to brain regions correlated with RSP. In words: Simultaneous recording from four Neuropixels probes with i.p. drug delivery. As to conditions: subanesthetic ketamine.

Structures are written as SMILES.

Turning to `CNC1(c2ccccc2Cl)CCCCC1=O` (centres unmarked) [ketamine], in assay [1], the “layer recruited in TRAP2 activity-mapping” value is “layer 5 was specifically recruited”. In addition, in assay [2], the “phase of anteromedial thalamic neurons relative to RSP” value is given as “oscillate out-of-phase with RSP”.
